From ChEMBL document CHEMBL4813924, “Isolation and Pharmacological Characterization of Six Opioidergic Picralima nitida Alkaloids” (J Nat Prod, 2021)

Chains of the proteins cited; added tags and fusions are not shown. Lines headed by an entry give the natural chain unless they say otherwise; changes in a name come on top.
UniProt P32300, whole entry, looked up: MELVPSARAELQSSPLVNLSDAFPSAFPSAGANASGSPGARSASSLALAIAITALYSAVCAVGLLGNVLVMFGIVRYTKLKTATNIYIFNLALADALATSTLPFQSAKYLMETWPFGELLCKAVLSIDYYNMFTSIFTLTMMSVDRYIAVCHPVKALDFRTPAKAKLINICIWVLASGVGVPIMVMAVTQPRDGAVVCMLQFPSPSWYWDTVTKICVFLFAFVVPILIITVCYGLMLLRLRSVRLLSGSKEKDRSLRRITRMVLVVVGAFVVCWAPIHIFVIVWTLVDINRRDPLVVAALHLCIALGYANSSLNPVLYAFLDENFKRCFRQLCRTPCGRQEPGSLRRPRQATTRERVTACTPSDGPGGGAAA
UniProt P41143, whole entry, looked up: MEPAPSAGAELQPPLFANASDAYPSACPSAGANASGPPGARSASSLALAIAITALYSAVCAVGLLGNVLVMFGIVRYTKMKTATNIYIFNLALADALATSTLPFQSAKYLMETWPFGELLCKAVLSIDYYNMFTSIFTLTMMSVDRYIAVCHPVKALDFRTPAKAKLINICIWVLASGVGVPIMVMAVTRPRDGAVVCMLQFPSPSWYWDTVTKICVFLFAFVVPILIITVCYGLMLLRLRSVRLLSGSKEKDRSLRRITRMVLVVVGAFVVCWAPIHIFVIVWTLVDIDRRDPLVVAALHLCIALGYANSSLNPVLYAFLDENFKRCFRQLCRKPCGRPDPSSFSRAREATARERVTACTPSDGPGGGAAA
UniProt P33534: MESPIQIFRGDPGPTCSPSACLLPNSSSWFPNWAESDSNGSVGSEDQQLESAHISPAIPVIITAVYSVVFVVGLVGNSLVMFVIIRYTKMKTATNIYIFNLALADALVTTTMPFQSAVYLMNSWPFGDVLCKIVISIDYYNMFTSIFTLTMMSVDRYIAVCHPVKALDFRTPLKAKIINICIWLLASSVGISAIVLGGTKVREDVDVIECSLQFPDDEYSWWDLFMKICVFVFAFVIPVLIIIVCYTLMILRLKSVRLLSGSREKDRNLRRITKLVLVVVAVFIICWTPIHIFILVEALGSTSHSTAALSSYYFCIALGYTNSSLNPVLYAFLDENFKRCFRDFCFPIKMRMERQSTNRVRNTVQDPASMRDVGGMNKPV

Legend:
[1] = molecular target: Delta-type opioid receptor (Mus musculus) (UniProt P32300); experiment: Agonist activity at mouse FLAG-tagged delta opioid receptor expressed in HEK293 cells assessed as inhibition of forskolin-induced cAMP production preincubated for 20 mins followed by forskolin stimulation and measured after 15 mins by Glo-sensor reagent based assay relative to Leu-Enk; format: functional, cell-based; set-up: scale not given: the % may be the effect or the level left; settings: filed as agonist
Mus musculus [2] = experiment: Antinociceptive activity against C57Bl/6N mouse model of thermal-induced nociception at 30 mg/kg, sc measured at 60 mins by hot-plate test
Mus musculus [3] = experiment: Antinociceptive activity against C57Bl/6N mouse model of thermal-induced nociception at 3 mg/kg, sc measured at 110 mins by tail-flick test
Mus musculus [4] = experiment: Antinociceptive activity against C57Bl/6N mouse model of thermal-induced nociception at 60 mg/kg, sc measured at 30 mins by hot-plate test
[5] = molecular target: Delta-type opioid receptor (Homo sapiens, UniProt P41143); experiment: Displacement of [3H]-DADLE from delta opioid receptor (unknown origin) expressed in HEK cells at 10 uM; format: cell-based; settings: filed as agonist
Mus musculus [6] = experiment: Antinociceptive activity against C57Bl/6N mouse model of thermal-induced nociception at 3 mg/kg, sc measured at 110 mins by hot-plate test; format: functional, organism-based
Mus musculus [7] = experiment: Antinociceptive activity against C57Bl/6N mouse model of thermal-induced nociception at 60 mg/kg, sc measured at 30 mins by tail-flick test
[8] = molecular target: Kappa-type opioid receptor (Mus musculus) (UniProt P33534); experiment: Agonist activity at mouse FLAG-tagged kappa opioid receptor expressed in HEK293 cells assessed as inhibition of forskolin-induced cAMP production preincubated for 20 mins followed by forskolin stimulation and measured after 15 mins by Glo-sensor reagent based assay relative to U50488; format: functional, cell-based; set-up: scale not given: the % may be the effect or the level left; settings: filed as agonist
Mus musculus [9] = experiment: Antinociceptive activity against C57Bl/6N mouse model of thermal-induced nociception at 5 mg/kg, po measured up to 120 mins by hot-plate test; settings: time min <=120
Mus musculus [10] = experiment: Antinociceptive activity against C57Bl/6N mouse model of thermal-induced nociception at 5 mg/kg, sc measured after 30 to 60 mins by tail-flick test; settings: time 30-60 min
Mus musculus [11] = experiment: Antinociceptive activity against C57Bl/6N mouse model of thermal-induced nociception at 10 mg/kg, sc measured at 30 mins by tail-flick test
Mus musculus [12] = experiment: Antinociceptive activity against C57Bl/6N mouse model of thermal-induced nociception at 5 mg/kg, sc measured at 30 mins by hot-plate test
Mus musculus [13] = experiment: Antinociceptive activity against C57Bl/6N mouse model of thermal-induced nociception at 5 mg/kg, po measured up to 120 mins by tail-flick test; settings: time min <=120
Mus musculus [14] = experiment: Antinociceptive activity against C57Bl/6N mouse model of thermal-induced nociception at 10 mg/kg, sc measured at 30 mins by hot-plate test

Row | SMILES | Activity [1] [%] | Activity (Mus musculus [2]) | Activity (Mus musculus [3]) | Activity (Mus musculus [4]) | inhibition [5] | Activity (Mus musculus [6]) | Activity (Mus musculus [7]) | Activity [8] [%] | Activity (Mus musculus [9]) | Activity (Mus musculus [10]) | Activity (Mus musculus [11]) | Activity (Mus musculus [12]) | Activity (Mus musculus [13]) | Activity (Mus musculus [14])
1 | C/C=C1/CN2CC[C@@]34c5cc(O)ccc5N(C)[C@]35OC[C@@]4(C(=O)OC)[C@H]1C[C@H]25 | 50 | Active | Active | Active | Active | Active | Active |  |  |  |  |  |  | 
2 | C/C=C1/CN2CC[C@@]34c5ccccc5N(C)[C@]35OC[C@@]4(C(=O)OC)[C@H]1C[C@H]25 |  |  |  |  | Active |  |  | 69 | inactive | Active | inactive | Active | inactive | inactive

The source made the active and inactive calls. The rule behind the calls is not given here.
